Laboratory results reported in PubChem BioAssay (NCI).
Where “and” joins values, the source holds several entries; their conditions need not be identical. Equal entries are not always repeated. The entries are a selection whose mix differs from that of the whole data set.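 Interpretation: 100, growth as untreated; towards 0, rising growth inhibition; 0, no net growth; 0 to -100, cell death. Compounds scoring below 10 were considered active.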 Calls of active or inactive are those of the source.

Legend:
Assay in all cases: NCI-60 one-dose screen, 48 h (100 = growth as untreated, 0 = no growth, -100 = all killed)
Settings in all cases: 10 µM unless noted
SK-MEL-2 melanoma = test system: SK-MEL-2 melanoma
SN12C renal = test system: SN12C renal
UO-31 renal = test system: UO-31 renal
TK-10 renal = test system: TK-10 renal
ACHN renal = test system: ACHN renal
CAKI-1 renal = test system: CAKI-1 renal
A498 renal = test system: A498 renal
HL-60(TB) leukemia = test system: HL-60(TB) leukemia
CCRF-CEM leukemia = test system: CCRF-CEM leukemia
MOLT-4 leukemia = test system: MOLT-4 leukemia
SR leukemia = test system: SR leukemia
RPMI-8226 leukemia = test system: RPMI-8226 leukemia
OVCAR-8 ovarian = test system: OVCAR-8 ovarian
OVCAR-5 ovarian = test system: OVCAR-5 ovarian
OVCAR-4 ovarian = test system: OVCAR-4 ovarian
SK-OV-3 ovarian = test system: SK-OV-3 ovarian
IGROV1 ovarian = test system: IGROV1 ovarian
OVCAR-3 ovarian = test system: OVCAR-3 ovarian
HS 578T breast = test system: HS 578T breast

Measured: growth

Cc1ccc(S(=O)(=O)N(CCCN)CCCc2c(C)nc(N)[nH]c2=O)cc1
inactive: SK-MEL-2 melanoma 103% | SN12C renal 85.7% | UO-31 renal 72.1% | TK-10 renal 115% | ACHN renal 99.8% | CAKI-1 renal 94.3% | A498 renal 97.4% | HL-60(TB) leukemia 102% | CCRF-CEM leukemia 92.7% | MOLT-4 leukemia 96.9% | SR leukemia 99.6% | RPMI-8226 leukemia 99.9% | OVCAR-8 ovarian 100% | OVCAR-5 ovarian 103% | OVCAR-4 ovarian 99% | SK-OV-3 ovarian 105% | IGROV1 ovarian 104% | OVCAR-3 ovarian 113% | HS 578T breast 97.6%

Cc1ccccc1C(=O)N(CCCl)CCCl
inactive: SK-MEL-2 melanoma 92.1% | SN12C renal 97.2% | UO-31 renal 94.2% | TK-10 renal 132% | ACHN renal 95.3% | CAKI-1 renal 115% | A498 renal 113% | HL-60(TB) leukemia 86.7% | MOLT-4 leukemia 94.1% | SR leukemia 95.5% | RPMI-8226 leukemia 97.4% | OVCAR-8 ovarian 100% | OVCAR-5 ovarian 101% | OVCAR-4 ovarian 101% | SK-OV-3 ovarian 105% | IGROV1 ovarian 101% | OVCAR-3 ovarian 112%

CCOP(=S)(OCC)OCC
inactive: SK-MEL-2 melanoma 113% | SN12C renal 105% | UO-31 renal 98% | TK-10 renal 107% | ACHN renal 99.4% | CAKI-1 renal 101% | A498 renal 112% | HL-60(TB) leukemia 120% | CCRF-CEM leukemia 106% | MOLT-4 leukemia 111% | SR leukemia 106% | RPMI-8226 leukemia 113% | OVCAR-8 ovarian 93.6% | OVCAR-5 ovarian 98.7% | OVCAR-4 ovarian 100% | SK-OV-3 ovarian 113% | IGROV1 ovarian 109% | OVCAR-3 ovarian 112% | HS 578T breast 102%

O=C(C(=O)c1ccc([N+](=O)[O-])cc1[N+](=O)[O-])c1ccc([N+](=O)[O-])cc1[N+](=O)[O-]
inactive: SK-MEL-2 melanoma 90.1% | SN12C renal 102% | UO-31 renal 87.5% | TK-10 renal 116% | ACHN renal 103% | CAKI-1 renal 93.8% | A498 renal 96.8% | HL-60(TB) leukemia 89.8% | CCRF-CEM leukemia 89.3% | MOLT-4 leukemia 93.6% | SR leukemia 93.6% | RPMI-8226 leukemia 97.7% | OVCAR-8 ovarian 95.8% | OVCAR-5 ovarian 104% | OVCAR-4 ovarian 96.7% | SK-OV-3 ovarian 93.9% | IGROV1 ovarian 98.8% | OVCAR-3 ovarian 104% | HS 578T breast 105%

CC(=O)NC(C)C(=O)N(CC(C)Cl)CC(C)Cl (configuration not stated)
inactive: SK-MEL-2 melanoma 108% | SN12C renal 96.4% | UO-31 renal 90.2% | TK-10 renal 108% | ACHN renal 89.5% | CAKI-1 renal 96.3% | A498 renal 104% | HL-60(TB) leukemia 87.1% | MOLT-4 leukemia 96.5% | SR leukemia 94.9% | RPMI-8226 leukemia 93.6% | OVCAR-8 ovarian 94.2% | OVCAR-5 ovarian 94.8% | OVCAR-4 ovarian 77.2% | SK-OV-3 ovarian 107% | IGROV1 ovarian 108% | OVCAR-3 ovarian 106%

CCOP(=O)(CCBr)OCC
inactive: SK-MEL-2 melanoma 115% and 125% | SN12C renal 106% | UO-31 renal 86.8% and 98.8% | TK-10 renal 102% and 112% | ACHN renal 102% and 105% | CAKI-1 renal 94.1% and 96.2% | A498 renal 93.1% and 29.5% | HL-60(TB) leukemia 103% and 97.5% | CCRF-CEM leukemia 97.6% and 112% | MOLT-4 leukemia 103% | SR leukemia 100% and 111% | RPMI-8226 leukemia 96.7% and 104% | OVCAR-8 ovarian 104% and 94.4% | OVCAR-5 ovarian 106% and 97% | OVCAR-4 ovarian 109% and 90.7% | SK-OV-3 ovarian 114% and 109% | IGROV1 ovarian 105% and 125% | OVCAR-3 ovarian 114% and 118% | HS 578T breast 109% and 95.4%

CN(C)C(=O)Oc1ccc(/C=N/NC(N)=S)nc1
inactive: SK-MEL-2 melanoma 85.7% | SN12C renal 92.8% | UO-31 renal 63.7% | TK-10 renal 76.6% | ACHN renal 79.7% | CAKI-1 renal 70.2% | A498 renal 94.2% | HL-60(TB) leukemia 87% | CCRF-CEM leukemia 88.8% | MOLT-4 leukemia 89.5% | SR leukemia 67.5% | RPMI-8226 leukemia 93.1% | OVCAR-5 ovarian 92.2% | OVCAR-4 ovarian 66% | SK-OV-3 ovarian 88.1% | IGROV1 ovarian 90.2% | OVCAR-3 ovarian 86.9% | HS 578T breast 109%

O=C(Nc1ccc([N+](=O)[O-])cc1)N(CCBr)CCBr
inactive: SK-MEL-2 melanoma 110% | SN12C renal 100% | UO-31 renal 68.5% | TK-10 renal 101% | ACHN renal 94.3% | CAKI-1 renal 88.2% | A498 renal 76.9% | HL-60(TB) leukemia 106% | CCRF-CEM leukemia 92.7% | MOLT-4 leukemia 107% | SR leukemia 94.2% | RPMI-8226 leukemia 95.2% | OVCAR-8 ovarian 103% | OVCAR-5 ovarian 105% | OVCAR-4 ovarian 98.2% | SK-OV-3 ovarian 105% | IGROV1 ovarian 106% | OVCAR-3 ovarian 111% | HS 578T breast 116%
